# Measurements reported in DBAASP.
# System: Staphylococcus aureus ATCC 12600
# Assay: ≥ marks a high value that may be exact or a test limit, other limits are often not marked, values filed in µg/mL are converted to µM
smiles,measurement,value
CC(C)C[C@H](NC(=O)[C@H](CC(C)C)NC(=O)[C@H](CC(N)=O)NC(=O)[C@H](CCC(=O)O)NC(=O)[C@H](CC(N)=O)NC(=O)[C@H](CC(C)C)NC(=O)[C@@H](N)C(C)C)C(=O)N[C@@H](CCCN=C(N)N)C(=O)O [VLNENLLR],MIC,≥ 128 µM
